## OPERA 2.9 data: melting point values

Data: OPERA 2.9 data sets, kmansouri/OPERA on GitHub.

Melting points are in °C. Cells with "–" have no entry in this list.

compound,name,MP (°C)
CCCCCCCCCCCC(=O)OCCCCCCCCCC,"Dodecanoic acid, decyl ester",21.4
CC(=O)c1cccc(OCC(=O)O)c1,(3-Acetylphenoxy)acetic Acid,120
COc1cc(Br)c(CCC#N)cc1OC,"3-(2-Bromo-4,5-dimethoxyphenyl)propanenitrile",78.8
N#CCc1ccc(-n2cccn2)cc1,[4-(1H-Pyrazol-1-yl)phenyl]acetonitrile,128
COc1ccc(C(=O)O)cn1,6-Methoxynicotinic acid,173
O=C1CCCC=CCCCCCCCCCC1,5-Cyclohexadecen-1-one,21.8
O=C(O)CCNS(=O)(=O)c1ccc(Br)cc1,N-(4-Bromobenzene-1-sulfonyl)-beta-alanine,162
FC(F)(F)c1cccc(C(c2ccccc2)(c2ccccc2)n2ccnn2)c1,–,132
NNC(=O)COc1ccccc1F,2-(2-fluorophenoxy)acetohydrazide,110
COS(=O)(=O)[O-].Cc1ccc(Nc2ccc(NCCC[N+](C)(C)C)c3c2C(=O)c2ccccc2C3=O)cc1,–,200
CC(=O)N(c1ccccc1)c1nc(C=O)cs1,"N-(4-formyl-1,3-thiazol-2-yl)-N-phenylacetamide",151
CCOC(=O)C(C)(C)n1nc2ccccc2n1,–,39.5
CN1N=C(C(=O)O)CCC1=O,–,157
O=S(=O)(Cl)CCc1ccccc1,2-phenylethanesulfonyl Chloride,31
C=CC(=O)OCC1CCCO1 (stereo not given),Tetrahydrofurfuryl acrylate,-31.3
CC(C)(Br)CBr,"Propane, 1,2-dibromo-2-methyl-",10.5
CN1CCN(c2ncccc2CO)C(c2ccccc2)C1 (stereo not given),2-(4-Methyl-2-phenyl-1-piperazinyl)-3-pyridinemethanol,121.4
SCCCCCCCCCS,"1,9-Nonanedithiol",-17.5
O=c1[nH]c(CCl)nc2scc(-c3ccc(Cl)cc3)c12,–,125
CCCCCCC(=O)OCC(COC(=O)CCCCCC)(COC(=O)CCCCCC)COC(=O)CCCCCC,–,-36
NS(=O)(=O)c1ccc2c(c1)OCCO2,"2,3-dihydro-1,4-benzodioxine-6-sulfonamide",198
NC(=O)N(c1ccccc1)c1ccccc1,"N,N-Diphenylurea",189
CCCC1CCC(c2ccc(-c3cc(F)c(F)c(F)c3)cc2)CC1 (stereo not given),–,38.3
CC(O)CNS(=O)(=O)CCCS(=O)(=O)c1ccc(C#N)c(C#N)c1 (stereo not given),–,159.6
Cc1noc(C)c1CC(=O)O,"(3,5-Dimethyl-1,2-oxazol-4-yl)acetic acid",118
CCNC(=S)n1ncc(C(=O)OCC)c1N,–,94
CCOC(=O)C(C[C@]1(CC)CCCN2CCc3c([nH]c4ccccc34)[C@@H]21)=NO,–,168
O=C1CNC2(CCCCC2)C(=O)N1,"1,4-diazaspiro[5.5]undecane-3,5-dione",185
CC(=O)CCO,"2-Butanone, 4-hydroxy-",-109
CCCCCN(CCCCC)C(=S)[S-].CCCCCN(CCCCC)C(=S)[S-].[Zn+2],"Zinc bis(N,N-dipentyldithiocarbamate)",10.43

A selection of 4 entries from above:

compound	name	MP (°C)
CN1CCN(c2ncccc2CO)C(c2ccccc2)C1 (stereo not given)	2-(4-Methyl-2-phenyl-1-piperazinyl)-3-pyridinemethanol	121.4
SCCCCCCCCCS	1,9-Nonanedithiol	-17.5
O=C(O)CCNS(=O)(=O)c1ccc(Br)cc1	N-(4-Bromobenzene-1-sulfonyl)-beta-alanine	162
NNC(=O)COc1ccccc1F	2-(2-fluorophenoxy)acetohydrazide	110

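The OPERA project collected these measurements from public sources as training and test data for property models. A listed value is a point estimate from one report or more. Method and conditions are not stated for these values. The measured form (salt, isomer or mixture) is not always the one drawn. Some entries may be limits or estimates that an upstream database listed as plain numbers.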